In article PMC6479714, “Multiplex Analysis Platform for Endocrine Disruption Prediction Using Zebrafish” (International Journal of Molecular Sciences, 2019):

Assay: acute toxicity test from 48–120 hpf based on the OECD FET test
Details: zebrafish, in vivo

Cn1cc[nH]c1=S [MMI, methimazole]
LC50: 15.9 mM

C[C@]12CC[C@H]3[C@@H](CCC4=CC(=O)CC[C@@]43C)[C@@H]1CC[C@@H]2O [TES, testosterone]
LC50: 0.0778 mM
